Target: human FKBP12 (Homo sapiens, UniProt P62942)
Experiment: competitive fluorescence polarization (FP) FKBP binding assay
Conditions: =IC50/IC50 of rapamycin; C24 oximes

Sequences of proteins named here, by UniProt entry; tags and fusion partners are left off.
UniProt P62942, whole entry: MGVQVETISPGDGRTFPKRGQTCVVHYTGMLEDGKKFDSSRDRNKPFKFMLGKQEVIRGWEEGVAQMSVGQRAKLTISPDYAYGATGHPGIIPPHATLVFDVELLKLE

Q: For `CON=C1CC(C(C)CC2CCC(O)C(OC)C2)OC(=O)C2CCCCN2C(=O)C(=O)C2(O)OC(CCC2C)CC(OC)C(C)=CC=CC=CC(C)CC(C)C(=O)C(OC)C(O)C(C)=CC1C` (stereo not shown) [Compound 5, Rapamycin (E and Z)-24-(O-methyloxime)], which “fold loss in affinity (vs rapamycin)” value is on record?
A: 616

From patent US6693189B2, “Materials and method for treating or preventing pathogenic fungal infection” (Ariad Gene Therapeutics, Inc., priority 1996, dated 2004)
